In patent publication US20080069857A1, “Compositions And Methods For Inhibiting Adhesions” (priority 2006, published 2008):

Tested on: Human mesothelial cells (ATCC, CRL-9444)
Assay: In vitro cell viability assay (MTT), mesothelial cells
Settings: range of concentrations of uncross-linked polymers; 3 days incubation

Substance: hyaluronic acid-adipic dihydrazide-dexamethasone-succinate [HA-DEX]
- effect of polymers on mesothelial cell viability (MTT): larger reduction in the viability
